The data set can be described thus: Solubility comparison in toluene at room temperature. As to conditions: about 50 mg of solid dissolved. The class given is physicochemical.

One compound from patent publication US7053160B1, “Metallocene monohalogenides” (Basell Polyolefine GmbH, priority 1998, dated 2006) can be followed below.

The structures appear in SMILES notation.

Regarding `CC1=Cc2c(ccc3ccccc23)[C]12[Si](C)(C)[C]1(C(C)=Cc3c1ccc1ccccc31)[Zr]2([Cl])[O]c1cc(C)ccc1C(C)C` (stereo not shown) [compound 3, Dimethylsilanediylbis(2-methyl-4,5-benzoindenyl)zirconium monochloride mono(2-isopropyl-5-methylphenoxide)], the solubility result is reported as “about 18 mmol/l”.
